Assay: Solubility of [RuCl2(arene)]2 complexes in 100 ml of solvent at 25° C. in various solvents

With “[RuCl2(4-(triisopropylsilyl)toluene)]2 [TIPS-tol]” the “solubility in 100 ml of solvent, Acetone” value was 0.8 g/100 ml, the “solubility in 100 ml of solvent, Chloroform” value was 56.5 g/100 ml and the “solubility in 100 ml of solvent, Methanol” value was 2.4 g/100 ml. For the same substance, the “solubility in 100 ml of solvent, THF” value was 1.9 g/100 ml and the “solubility in 100 ml of solvent, Toluene” value was 1.5 g/100 ml.
With “[RuCl2(4-(trimethylsilyl)toluene)]2 [TMS-tol]” the “solubility in 100 ml of solvent, Acetone” value was 1.0 g/100 ml, the “solubility in 100 ml of solvent, Chloroform” value was 31.3 g/100 ml and the “solubility in 100 ml of solvent, Methanol” value was 3.7 g/100 ml. The “solubility in 100 ml of solvent, THF” value was 2.3 g/100 ml and the “solubility in 100 ml of solvent, Toluene” value was 1.4 g/100 ml.
